Source: PubChem BioAssay AID1220 (Sanford-Burnham Center for Chemical Genomics, 2008)
The list shows a part of the results, in another mix than the full data. Active and inactive are the calls of the source. Rule as the data show it: active = inhibition above about 50%; inactive = the rest.

Sequences of proteins named here, by UniProt entry; tags and fusion partners are left off.
UniProt P34949, whole entry: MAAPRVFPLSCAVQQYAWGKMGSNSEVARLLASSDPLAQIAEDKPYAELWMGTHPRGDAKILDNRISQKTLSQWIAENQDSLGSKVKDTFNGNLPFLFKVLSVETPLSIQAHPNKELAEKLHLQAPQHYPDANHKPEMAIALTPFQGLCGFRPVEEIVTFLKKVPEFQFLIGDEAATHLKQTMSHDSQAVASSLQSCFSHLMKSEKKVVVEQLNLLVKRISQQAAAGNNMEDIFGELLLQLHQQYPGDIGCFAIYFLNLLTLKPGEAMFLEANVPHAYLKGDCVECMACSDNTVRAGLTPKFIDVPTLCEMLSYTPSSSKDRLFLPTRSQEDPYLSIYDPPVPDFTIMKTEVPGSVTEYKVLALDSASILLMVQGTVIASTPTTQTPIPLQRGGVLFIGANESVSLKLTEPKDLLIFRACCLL

molecular target: Mannose-6-phosphate isomerase (Homo sapiens) (UniProt P34949); experiment: human PMI inhibitors, high substrate, primary screen, biochemical, fluorescence intensity, high mannose 6-phosphate (AID 1220); conditions: recombinant PMI enzyme, coupled fluorescence intensity; at 20 µM; hits give high values

SMILES | inhibition
Fc1ccccc1NC1CCN(Cc2ccccc2)CC1 | inactive: -7.7%
CN(C)c1ccc(C(=O)NCC2(N3CCCCC3)CCCCC2)cc1 | inactive: -3.3%
CCN1CCC(Nc2cccc(F)c2)CC1 | inactive: -4.1%
CC(C)(C)OC(=O)N1CCC(Nc2ccccc2)CC1 | inactive: 5.9%
CCOc1ncccc1C(=O)NCC1(N2CCOCC2)CCCCC1 | inactive: -1.5%
COc1cc(OC)cc(C(=O)NCC2(N3CCOCC3)CCCCC2)c1 | inactive: -6.6%
CCC(CO)(C(=O)OC1CN2CCC1CC2)c1ccccc1 (stereo not given) | inactive: 3.3%
COc1ccc(C(=O)NCC2(N3CCOCC3)CCCCC2)cc1OC | inactive: -6.4%
O=C(OC1CN2CCC1CC2)C1c2ccccc2C=Cc2ccccc21 (stereo not given) | inactive: -1.2%
N/C(=N\O)c1c(N)no[n+]1[O-] | inactive: -10.5%
N#Cc1ccc(C(=O)NCC2(N3CCCCC3)CCCCC2)cc1 | inactive: -8.4%
c1ccc(CN2CCC(Nc3ccccc3)CC2)cc1 | inactive: 17.2%
N#CC1(Nc2ccccc2)CCN(CCc2ccccc2)CC1 | inactive: 2.8%
O=C(NCC1(N2CCCCC2)CCCCC1)c1cccc([N+](=O)[O-])c1 | inactive: -9.9%
O=C(NCC1(N2CCOCC2)CCCCC1)c1cc(=O)[nH]c2ccccc12 | inactive: -2.2%
CN1CCN(CCOC(=O)C(O)(c2ccccc2)c2ccccc2)CC1 | inactive: -19.5%
COc1ccc(NC2CCN(C(=O)OC(C)(C)C)CC2)cc1 | inactive: 16.4%
CC(C)c1ccc(NC2CCN(C(=O)OC(C)(C)C)CC2)cc1 | inactive: 29%
COc1ccc(CN(CCCl)CCCl)cc1Cl | inactive: 26.9%
CN(C)c1cccc(C(=O)NCC2(N3CCCCC3)CCCCC2)c1 | inactive: 9.1%
COc1ccc(C(=O)NCC2(N3CCCCC3)CCCCC2)c(OC)c1OC | inactive: -8%
O=C(OC1CN2CCC1CC2)C1c2ccccc2Oc2ccccc21 (stereo not given) | inactive: 8.2%
CCOC(=O)N1CCC(Nc2ccc(OC)cc2)CC1 | inactive: 13.5%
O=C(NCC1(N2CCOCC2)CCCCC1)c1cc2ccccc2o1 | inactive: -4.1%
COc1ccc(NC2CCN(CCc3ccccc3)CC2)c(OC)c1 | active: 51.8%
